The values that follow come from patent publication US8178577B2, “Tricyclic derivatives as potent and selective histone deacetylase inhibitors” (Shenzhen Chipscreen Biosciences Ltd., priority 2008, dated 2012).

Chains of the proteins cited; added tags and fusions are not shown. Lines headed by an entry give the natural chain unless they say otherwise; changes in a name come on top.
UniProt O15379: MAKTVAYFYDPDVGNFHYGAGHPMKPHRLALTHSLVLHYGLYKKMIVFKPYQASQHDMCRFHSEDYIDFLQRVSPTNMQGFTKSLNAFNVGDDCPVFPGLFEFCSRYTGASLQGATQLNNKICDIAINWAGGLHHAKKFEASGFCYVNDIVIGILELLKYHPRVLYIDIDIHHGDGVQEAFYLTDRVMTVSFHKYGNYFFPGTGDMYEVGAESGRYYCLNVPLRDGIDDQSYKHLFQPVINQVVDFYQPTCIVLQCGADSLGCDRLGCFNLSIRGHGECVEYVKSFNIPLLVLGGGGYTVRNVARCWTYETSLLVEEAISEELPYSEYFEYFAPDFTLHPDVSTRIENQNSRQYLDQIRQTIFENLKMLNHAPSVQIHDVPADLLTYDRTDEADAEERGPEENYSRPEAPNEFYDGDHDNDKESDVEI

Format in all cases: cell-based
The target in assay [1] is T1, HDAC7 (Homo sapiens, UniProt Q8WUI4).
T1 construct: endogenous in cells; host or cells: HeLa
T1 sequence (Q8WUI4 1-952): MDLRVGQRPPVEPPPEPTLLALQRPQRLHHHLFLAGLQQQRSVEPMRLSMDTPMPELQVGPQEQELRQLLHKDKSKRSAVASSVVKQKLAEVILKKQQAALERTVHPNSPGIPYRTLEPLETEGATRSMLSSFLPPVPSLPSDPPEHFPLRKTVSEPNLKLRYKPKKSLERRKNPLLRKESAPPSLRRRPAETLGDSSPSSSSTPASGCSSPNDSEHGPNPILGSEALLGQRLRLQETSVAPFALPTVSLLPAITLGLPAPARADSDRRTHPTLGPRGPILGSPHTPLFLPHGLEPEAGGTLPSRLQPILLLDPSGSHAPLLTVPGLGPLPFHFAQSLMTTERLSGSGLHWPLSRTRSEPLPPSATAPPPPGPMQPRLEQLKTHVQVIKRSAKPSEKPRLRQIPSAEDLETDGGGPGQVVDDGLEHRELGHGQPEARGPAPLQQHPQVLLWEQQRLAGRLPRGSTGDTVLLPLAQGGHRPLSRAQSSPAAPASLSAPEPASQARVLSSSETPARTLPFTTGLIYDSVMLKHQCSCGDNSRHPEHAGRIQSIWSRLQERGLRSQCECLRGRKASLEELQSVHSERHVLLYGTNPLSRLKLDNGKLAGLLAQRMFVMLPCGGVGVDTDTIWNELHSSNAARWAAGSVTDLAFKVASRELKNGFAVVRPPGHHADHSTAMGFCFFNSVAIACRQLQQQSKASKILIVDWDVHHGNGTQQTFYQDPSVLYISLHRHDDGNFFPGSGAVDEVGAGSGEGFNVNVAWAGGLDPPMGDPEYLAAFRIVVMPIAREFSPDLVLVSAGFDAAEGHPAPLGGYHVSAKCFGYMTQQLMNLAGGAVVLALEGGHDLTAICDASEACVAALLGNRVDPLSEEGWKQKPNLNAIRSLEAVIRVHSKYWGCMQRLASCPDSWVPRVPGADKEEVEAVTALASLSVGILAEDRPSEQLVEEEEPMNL
Description: Nur77 reporter gene assay in HeLa cells. Conditions: 24 h, read-out: % of SAHA Response for HDAC7 at 10 μM (Nur77 reporter gene). On the procedure:
(§1) HDAC subtype selectivity inhibition assay of tested compounds was carried out by several reporter gene assays experiments. Briefly, HeLa cells were seeded in 96-well plates the day before transfection to give a confluence of 50-80%. Cells were transfected with one of reporter gene plasmids containing a promoter sequences or response elements upstream of a luciferase gene construct using FuGene6 transfection reagent according to the manufacturer's instructions (Roche). The promoter or response elements including p21-promoter, gdf11-promoter, serum response element (SRE), MEF-binding element were fused upstream to the luciferase gene reporter construct. For normalizing the transfection efficiency, a GFP expression plasmid was cotransfected. Cells were allowed to express protein for 24 hours followed by addition of individual compounds or the vehicle (DMSO). 24 hours later the cells were harvested, and the luciferase assays were performed using the luciferase assay kit according to the manufacturer's instructions (Promega). To normalize the data from the luciferase assays, β-galactosidase activity from transfected cells was measured using a kit (Promega) as instructed by the manufacturer.
On the technique in general: A reporter such as luciferase makes a cellular process visible.

Assay [2] concerns the target T2, (Homo sapiens, UniProt Q9UBN7).
T2 construct: endogenous in cells; host or cells: A549
T2 sequence (Q9UBN7 1-1215): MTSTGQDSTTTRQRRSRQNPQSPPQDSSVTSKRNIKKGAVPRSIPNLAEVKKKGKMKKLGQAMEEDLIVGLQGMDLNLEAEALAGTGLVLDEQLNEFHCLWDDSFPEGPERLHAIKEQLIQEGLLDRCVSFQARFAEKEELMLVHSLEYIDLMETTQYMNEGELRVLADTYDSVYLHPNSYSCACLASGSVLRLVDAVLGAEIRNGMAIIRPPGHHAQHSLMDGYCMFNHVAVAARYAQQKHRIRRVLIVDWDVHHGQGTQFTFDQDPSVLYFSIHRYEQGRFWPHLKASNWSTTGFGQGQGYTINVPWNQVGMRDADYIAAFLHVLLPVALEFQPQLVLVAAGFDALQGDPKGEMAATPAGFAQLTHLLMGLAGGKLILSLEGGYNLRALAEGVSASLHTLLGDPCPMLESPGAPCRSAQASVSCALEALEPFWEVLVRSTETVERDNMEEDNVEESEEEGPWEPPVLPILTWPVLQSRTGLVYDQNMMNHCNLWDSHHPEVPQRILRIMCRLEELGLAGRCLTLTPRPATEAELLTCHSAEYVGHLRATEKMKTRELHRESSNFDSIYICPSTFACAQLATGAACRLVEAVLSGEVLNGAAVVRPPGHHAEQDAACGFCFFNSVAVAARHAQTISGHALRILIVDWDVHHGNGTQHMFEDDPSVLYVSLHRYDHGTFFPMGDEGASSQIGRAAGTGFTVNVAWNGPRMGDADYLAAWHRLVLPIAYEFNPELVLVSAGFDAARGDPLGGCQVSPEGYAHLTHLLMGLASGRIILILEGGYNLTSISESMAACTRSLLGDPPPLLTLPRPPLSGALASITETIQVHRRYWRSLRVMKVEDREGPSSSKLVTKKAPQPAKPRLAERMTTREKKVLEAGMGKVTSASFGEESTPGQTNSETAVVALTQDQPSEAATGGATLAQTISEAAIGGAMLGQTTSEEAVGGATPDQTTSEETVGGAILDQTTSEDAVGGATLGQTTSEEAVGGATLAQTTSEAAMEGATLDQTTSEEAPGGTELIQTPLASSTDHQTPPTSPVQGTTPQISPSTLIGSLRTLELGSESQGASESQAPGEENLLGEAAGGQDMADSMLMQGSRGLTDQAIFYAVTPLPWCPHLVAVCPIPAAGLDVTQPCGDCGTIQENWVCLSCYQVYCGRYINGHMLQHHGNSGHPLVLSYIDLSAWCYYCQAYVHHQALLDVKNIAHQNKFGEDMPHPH
Description: Cytoblot assay of acetylation of α-tubulin in A549 cells. The following applies: 24 hours. On the procedure:
This assay is used to measure in vivo inhibition of HDAC6 in a cytoblot assay.
• 1. […] Compounds were added and incubated for 24 hours at 37° C. • 3.

The target in assay [3] is T3, HDAC3 (Homo sapiens, UniProt O15379).
T3 construct: endogenous in cells; host or cells: HeLa
Description: gdf11 reporter gene assay in HeLa cells. The following applies: 24 h, read-out: % of SAHA Response for HDAC3 at 10 μM (gdf11 reporter gene). On the procedure:
as §1

As for `O=C(C=C1c2ccccc2-c2ccccc21)NCCCCCC(=O)NO` [Example 11, 6-(2-(9H-fluoren-9-ylidene)acetamido)-N-hydroxyhexanamide], the figures for the activation at 10 µM in assay [1] and in assay [3] were 90% and 81%, respectively. Besides, the “Fold of tubulin acetylation (HDAC7 at 10 μM)” value in assay [2] is given as 3.141 Fold.
